According to ChEMBL document CHEMBL1121903, “4-amino-4-arylcyclohexanones and their derivatives: a novel class of analgesics. 2. Modification of the carbonyl function” (1981):

Organism: Mus musculus
Test: Blockade of morphine-induced elevation of tail-flick latency

| Compound | ED50 [mg/kg] |
| --- | --- |
| CN(C)C1(c2ccc(Cl)cc2)CCC(O)(CCC2=CCCCC2)CC1 (stereo not drawn) | > 100 |
| C#CC1(O)CCC(c2ccc(C)cc2)(N(C)C)CC1 (stereo not drawn) | > 100 |
| CN(C)C1(c2ccc(Br)cc2)CCC(C)(O)CC1 (stereo not drawn) | > 50 |
| Cc1ccc(C2(N(C)C)CCC(C)(O)CC2)cc1 (stereo not drawn) | > 100 |
| CN(C)C1(c2ccc(Cl)cc2)CCC(O)(CCCc2ccccc2)CC1 (stereo not drawn) | > 100 |
| CN(C)C1(c2ccc(Cl)cc2)CCC(O)(CCC2CCCC2)CC1 (stereo not drawn) | > 100 |
| C=C1CCC(CC2(O)CCC(c3ccc(Cl)cc3)(N(C)C)CC2)CC1 (stereo not drawn) | > 100 |
| CN(C)C1(c2ccccc2)CCC(O)CC1 (stereo not drawn) | > 100 |
| C=CCCCC1(O)CCC(c2ccc(Cl)cc2)(N(C)C)CC1 (stereo not drawn) | > 100 |
| C=CCC1(O)CCC(c2ccc(Cl)cc2)(N(C)C)CC1 (stereo not drawn) | > 100 |
| CN(C)C1(c2ccc(Cl)cc2)CCC(O)(Cc2ccccc2)CC1 (stereo not drawn) | > 100 |
| CN(C)C1(c2ccc(Cl)cc2)CCC(O)(CCC2CC=CCC2)CC1 (stereo not drawn) | > 100 |
| CN(C)C1(c2ccc(Cl)cc2)CCC(O)CC1 (stereo not drawn) | > 6.3 |
| C=CCC1(O)CCC(c2ccc(Br)cc2)(N(C)C)CC1 (stereo not drawn) | > 50 |
| CN(C)C1(c2ccc(Cl)cc2)CCC(C)(O)CC1 (stereo not drawn) | > 100 |
| C=CCC1(O)CCC(c2ccc(C)cc2)(N(C)C)CC1 (stereo not drawn) | > 50 |
| CCCC1(O)CCC(c2ccc(Cl)cc2)(N(C)C)CC1 (stereo not drawn) | > 100 |
| C=CCCC1(O)CCC(c2ccc(Cl)cc2)(N(C)C)CC1 (stereo not drawn) | > 100 |
